From patent US20130295185A1, “COMPOUNDS AND METHODS FOR INDUCING APOPTOSIS IN CANCER CELLS USING A BH3 ALPHA-HELICAL MIMETIC” (H. Lee Moffitt Cancer Center and Research Institute, Inc., priority 2011, published 2013)

Test system: Bim with Bcl-XL, Bcl-2 and Mcl-1
Experiment: Co-immunoprecipitation from MDA-MB-468 cells co-expressing Bcl-XL, Bcl-2 or Mcl-1 and Bim
Details: MDA-MB-468, 0-100 μM BH3-M6 or 100 μM TPC, 24 h; tested form: diammonium salt (as drawn, CO2NH4)
Procedure: FIG. 4 is a series of images illustrating BH3-M6 inhibits the interaction between Bcl-XL, Bcl-2, and Mcl-1 with Bim, Bak or Bax in intact cells. (A) Co-immunoprecipitation from HEK293T cells. HEK293T cells were co-transfected with HA-Bcl-XL and Flag-BimEL for 18 h. Cells were exposed to 0, 25, 50, and 100 μM of BH3-M6 or 100 μM of TPC for 2 h at 37° C., lysed and subjected to immunoprecipitation with anti-FLAG-M2 beads. The resulting immune complexes, as well as total lysates, were analyzed by Western blotting with the indicated antibodies. (B) Co-immunoprecipitation from MDA-MB-468 cells expressing Bcl-XL-IRES-BimEL, Bcl-2-IRES-BimEL, and Mcl-1-IRES-BimEL. Cells were grown in 100-mm plates and treated with 0, 25, 50, and 100 μM BH3-M6 or 100 μM TPC for 24 h at 37° C., lysed and subjected to immunoprecipitation with Bcl-XL, Bcl-2, and Mcl-1 antibodies. The resulting immune complexes were analyzed by Western blotting with Bim, Bcl-XL, Bcl-2, and Mcl-1 antibodies. (C) Co-immunoprecipitation from H1299 cells. H1299 non-small lung cancer cells were grown in RPMI-1640 medium plus 10% FBS, antibiotics and 1% sodium pyruvate, 1% HEPES, and 1.1% glucose. […] The resulting immune complexes were analyzed by Western blotting with the indicated antibodies. […] The resulting immune complexes were analyzed by Western blotting with the antibodies indicated on the right. […]

CC(C)Cc1cc(-c2ccc(-c3ccc(CCC(=O)O)cc3CC(C)C)cc2Cc2ccccc2)ccc1OCC(=O)O
disruption of interaction of Bim with Bcl-XL, Bcl-2 and Mcl-1: disrupted the interaction of Bim with Bcl-XL, Bcl-2 and Mcl-1 in a dose-dependent manner
